Tests used:
[1] = unmodified GIP; Said and Mutt, 1970; cited from earlier work
[2] = biological target: T1, human recombinant GIP receptor (Homo sapiens, UniProt P48546); test: In vitro hGIP receptor binding assay; details: membranes of CHO-K1 cells expressing human recombinant GIP receptor; 0.05 nM [125I]GIP
T1 construct: expressed in transfected cells; host or cells: CHO-K1 clonal cells (membrane preparation)
T1 sequence (P48546 22-466): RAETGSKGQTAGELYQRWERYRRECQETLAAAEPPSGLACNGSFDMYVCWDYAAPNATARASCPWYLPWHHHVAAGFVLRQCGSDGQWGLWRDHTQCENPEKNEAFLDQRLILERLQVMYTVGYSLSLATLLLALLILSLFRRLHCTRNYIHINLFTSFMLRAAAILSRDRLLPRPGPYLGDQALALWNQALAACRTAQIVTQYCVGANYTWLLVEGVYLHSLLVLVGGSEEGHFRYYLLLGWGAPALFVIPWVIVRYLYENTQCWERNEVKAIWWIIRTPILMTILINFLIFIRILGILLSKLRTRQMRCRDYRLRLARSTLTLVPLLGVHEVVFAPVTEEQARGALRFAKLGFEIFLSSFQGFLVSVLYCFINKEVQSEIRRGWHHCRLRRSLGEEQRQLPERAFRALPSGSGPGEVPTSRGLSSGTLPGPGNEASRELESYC
Protocol: A. In Vitro hGIP Receptor Binding Assay Membranes for in vitro receptor binding assays were prepared by homogenizing the CHO-K1 clonal cells expressing the human recombinant GIP receptor, with a Brinkman Polytron (setting 6, 15 sec), in ice-cold 50 mM Tris-HCl and then subjected to two centrifugations at 39,000 g for 10 minutes, with a resuspension in fresh buffer in between. […] The final assay volume was 0.5 ml. The incubations were terminated by rapid filtration through GF/C filters (pre-soaked in 0.5% polyethylenimine) using a Brandel filtration manifold. Each tube and filter were then washed three times with 5-ml aliquots of ice-cold buffer.

Ki [2] [pM] | Substance | in vivo half-life [1]
 | Glucose-dependent insulinotropic polypeptide [GIP, reference compound] | about 2 minutes
760 | [A5c^11,41, Cys^33(succinimide-N-20K PEG)]hGIP(1-42)-NH2 [Example 44] | 

From patent publication US9072703B2, “Glucose-dependent insulinotropic polypeptide analogues” (Ipsen Pharma S.A.S., priority 2008, dated 2015)
